Results from patent US9663522B2, “3-aminocycloalkyl compounds as RORgammaT inhibitors and uses thereof” (Merck Sharp & Dohme Corp., priority 2012, dated 2017).

Sequences of proteins named here, by UniProt entry; tags and fusion partners are left off. Residues count along the entry.
UniProt P51449, 269-508: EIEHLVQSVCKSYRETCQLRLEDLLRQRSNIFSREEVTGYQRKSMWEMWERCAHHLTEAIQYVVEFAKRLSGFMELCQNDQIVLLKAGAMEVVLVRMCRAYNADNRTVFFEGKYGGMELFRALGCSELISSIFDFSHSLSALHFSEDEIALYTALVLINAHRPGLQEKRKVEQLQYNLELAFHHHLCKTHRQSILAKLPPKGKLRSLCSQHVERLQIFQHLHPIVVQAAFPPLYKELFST

Target: human RORgammaT-Ligand Binding Domain (LBD) (Homo sapiens (Human), UniProt P51449)
Assay: biochemical

IC50: 0.164 µM
SMILES: O=C(O)C1CCN(c2nn(C(=O)c3c(Cl)cccc3C(F)(F)F)c3cccnc23)CC1O (stereo not shown) [Example 1K, 1-(1-(2-chloro-6-(trifluoromethyl)benzoyl)-1H-pyrazolo[4,3-b]pyridin-3-yl)-3-hydroxypiperidine-4-carboxylic acid]
